# This is a selection; strong and weak results do not stand in their true shares. Activity calls are given as the source filed them. Calls come from the whole dose curve; as a rule, active = well fitted activation curve with a large enough effect; inconclusive = small, poorly fitted or top-dose-only effect, or another doubt; inactive = no such curve, though single readings can be large or run the other way.
# Experiment: Activators of T cell receptors: qHTS campaign; note: % of control where 0% means no effect
# Conditions: primary human leukocytes, anti-CD3, IL-2 HTRF, 48 h; at 9.22 µM (top of the series)
# Text: Normally activation of naive T cells requires two signals. 1. A signal through the T cell receptor (TCR) which provides antigen specificity to the response. 2. Signals through co-stimulatory molecules, which are necessary for proliferation, survival and cytokine production. In the absence of co-stimulatory signals T cells are not effectively activated, and may even be rendered anergic or unresponsive to subsequent signaling. This lack of costimulation has been shown in multiple model systems to be a major factor in the limited strength and effectiveness of anti-tumor T cell responses. The goal of this project is to identify small molecule compounds that will stimulate T cell activation in the presence of TCR signaling but in the absence of co-stimulatory signals, thereby allowing activation of naive T cells in the absence of co-stimulation. Identification of such compounds would have clear experimental and clinical applications in instances where desirable antigen-specific immune responses are not generated due to a lack of co-stimulation, for example in the generation of anti-tumor responses. […] The screen will be carried out using a novel homogeneous time resolved fluorescence energy transfer (HTRF) assay to measure production of the cytokine IL-2 by activated T cells and will be tested against the NIH Molecular Libraries Small Molecule Repository (MLSMR). […]
row,SMILES,activation of IL-2 secretion
1,CCC(=O)N(c1ccccc1)C1(COC)CCN(CCn2nnn(CC)c2=O)CC1,inactive: -11.3%
2,CCC(=O)N(c1ccccc1)C1(COC)CCN(CCc2cccs2)CC1,inactive: 2.93%

# From PubChem BioAssay AID504894 (National Center for Advancing Translational Sciences (NCATS), 2011)
